Test results as given in PubChem BioAssay AID2606 (The Scripps Research Institute Molecular Screening Center, 2010).
This is a selection; strong and weak results do not stand in their true shares. Activity calls are given as the source filed them. Cut-off read from the data, not from the text of the source: active = inhibition above about 38%; inactive = the rest.

Protein sequences, listed by entry. Tags and fused reporters are not part of them.
UniProt P9WHR9, whole entry: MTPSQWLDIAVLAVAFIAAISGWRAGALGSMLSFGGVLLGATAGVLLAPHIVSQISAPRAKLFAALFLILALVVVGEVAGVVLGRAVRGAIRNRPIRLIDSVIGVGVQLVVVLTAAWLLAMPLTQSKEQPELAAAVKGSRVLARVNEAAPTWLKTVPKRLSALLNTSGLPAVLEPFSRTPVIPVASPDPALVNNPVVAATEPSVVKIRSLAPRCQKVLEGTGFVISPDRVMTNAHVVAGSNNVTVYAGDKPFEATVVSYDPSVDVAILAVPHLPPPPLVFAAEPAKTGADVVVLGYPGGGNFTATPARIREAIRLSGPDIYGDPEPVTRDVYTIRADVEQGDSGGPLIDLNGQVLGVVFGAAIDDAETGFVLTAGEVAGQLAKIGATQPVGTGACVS

Target: Serine protease Rv3671c (Mycobacterium tuberculosis (strain ATCC 25618 / H37Rv)) (UniProt P9WHR9)
Assay: Rv3671c serine protease inhibitors, primary screen, biochemical, fluorescence polarization, M. tuberculosis H37Rv (AID 2606);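 note: extracellular domain of Rv3671c used as enzyme; 0% = enzyme with DMSO and 100% = no enzyme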
Conditions: at 5.96 µM; active compounds read high

| SMILES | inhibition |
| --- | --- |
| CCC(=O)N(c1ccccc1)C1(COC)CCN(CCc2cccs2)CC1 | inactive: -11.2% |
| CCC(=O)N(c1ccccc1)C1(COC)CCN(CCn2nnn(CC)c2=O)CC1 | inactive: 2.5% |
